The chains behind the UniProt entries cited, without tags or fusion partners. Residues count along the entry.
UniProt P01031, 19-1676 limits assumed: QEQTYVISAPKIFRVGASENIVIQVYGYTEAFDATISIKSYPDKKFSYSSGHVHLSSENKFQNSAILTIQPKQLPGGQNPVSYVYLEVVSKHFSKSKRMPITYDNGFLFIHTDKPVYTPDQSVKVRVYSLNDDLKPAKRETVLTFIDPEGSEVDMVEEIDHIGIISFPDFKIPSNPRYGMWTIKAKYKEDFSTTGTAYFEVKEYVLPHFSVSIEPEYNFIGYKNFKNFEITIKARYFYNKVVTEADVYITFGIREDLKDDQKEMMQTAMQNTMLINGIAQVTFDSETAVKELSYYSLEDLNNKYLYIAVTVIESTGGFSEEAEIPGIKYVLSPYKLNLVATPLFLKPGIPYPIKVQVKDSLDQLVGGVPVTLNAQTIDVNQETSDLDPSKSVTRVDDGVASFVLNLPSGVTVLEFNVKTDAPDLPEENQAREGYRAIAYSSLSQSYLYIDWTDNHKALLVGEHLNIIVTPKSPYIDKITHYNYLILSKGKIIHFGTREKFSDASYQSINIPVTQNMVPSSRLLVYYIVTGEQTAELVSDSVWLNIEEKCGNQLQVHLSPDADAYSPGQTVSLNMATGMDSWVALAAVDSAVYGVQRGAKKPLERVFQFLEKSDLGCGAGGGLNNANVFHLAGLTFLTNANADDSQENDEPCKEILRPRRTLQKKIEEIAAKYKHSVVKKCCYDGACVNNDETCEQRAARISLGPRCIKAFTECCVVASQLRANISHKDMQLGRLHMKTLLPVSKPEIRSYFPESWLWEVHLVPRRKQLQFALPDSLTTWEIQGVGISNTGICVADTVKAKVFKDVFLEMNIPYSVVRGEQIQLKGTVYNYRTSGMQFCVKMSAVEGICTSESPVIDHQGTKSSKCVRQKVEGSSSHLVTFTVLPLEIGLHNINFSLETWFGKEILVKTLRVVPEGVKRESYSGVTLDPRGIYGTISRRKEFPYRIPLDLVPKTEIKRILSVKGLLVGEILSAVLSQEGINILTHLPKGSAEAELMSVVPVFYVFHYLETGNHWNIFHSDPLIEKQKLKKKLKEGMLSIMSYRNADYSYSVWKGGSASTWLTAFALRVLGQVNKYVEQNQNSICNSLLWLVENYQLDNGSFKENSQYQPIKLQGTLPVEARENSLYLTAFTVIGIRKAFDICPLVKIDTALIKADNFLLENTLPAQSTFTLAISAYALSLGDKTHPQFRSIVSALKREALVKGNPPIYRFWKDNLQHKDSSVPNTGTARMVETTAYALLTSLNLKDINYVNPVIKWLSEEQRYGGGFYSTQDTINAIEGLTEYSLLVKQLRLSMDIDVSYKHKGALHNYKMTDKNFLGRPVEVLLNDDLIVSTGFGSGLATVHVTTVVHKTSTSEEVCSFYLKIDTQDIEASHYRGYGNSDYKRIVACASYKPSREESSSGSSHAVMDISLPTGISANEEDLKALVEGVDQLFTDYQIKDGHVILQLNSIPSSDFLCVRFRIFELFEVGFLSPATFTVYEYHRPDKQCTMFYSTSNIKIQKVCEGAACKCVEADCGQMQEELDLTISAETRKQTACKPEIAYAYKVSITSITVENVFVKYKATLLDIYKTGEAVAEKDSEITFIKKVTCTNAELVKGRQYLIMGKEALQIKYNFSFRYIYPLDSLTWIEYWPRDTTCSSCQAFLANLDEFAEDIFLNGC

According to patent US20240076360A1 (University of Pennsylvania, published 2024):

Molecular target: T1, human C5 (human, UniProt P01031 19-1676)
T1 construct: BLI used 'human C5' of unstated source; lysis assays used C5 of normal human serum; also called C5 (human); complement C5
Assay: BLI (Gator), immobilized antibody, human C5 0.625-40 nM, association and dissociation pH 7.4
Method: The 8 histidine mutation-containing anti-C5 antibodies, including Y32H/Q38R, were tested for their pH dependence in C5 binding assays. ALXN1210, a pH-dependent binding variant of Eculizumab (U.S. Pat. No. 9,079,949) was used as a reference. A Biolayer interferometry instrument, Gator™ (Probe life Inc., USA) was used to determine pH dependent dissociation of histidine mutants and the benchmark antibodies. Briefly, anti-human IgG Fc (FHC) Probes were equilibrated in the kinetic (K) buffer of Phosphate-buffered saline containing 0.02% bovine serum albumin and 0.002% Tween20 pH 7.4. Antibodies were captured onto the sensors by dipping them into 200 μL of transfection supernatant for 600 s at pH 7.4. The biosensors were then incubated with human C5 prepared in the K buffer pH 7.4 (40 nM) for 600 s followed by 600-second dissociation period in K Buffer, pH 7.4 or pH 5.8. The data were processed and analyzed by the Gator evaluation software.
Experiment was performed to compare the pH-dependent C5 binding properties of Y32H/Q38R/L54H, Eculizumab and ALXN1210. C5 binding to probe-immobilized antibodies was allowed proceed at pH 7.4 for 600 s, followed by a 600 s dissociation period in K Buffer, pH 7.4 or pH 5.8. The data were processed and analyzed by the Gator evaluation software. […] Conversely, Y32H/Q38R/L54H has less dissociation at pH 7.4 than ALXN1210 and faster dissociation at pH 7.4 than Eculizumab.

Kd: 1.21 nM | koff: 0.000152 s⁻¹ | kon: 126000 M⁻¹ s⁻¹
B1: ALXN1210 (antibody, V domains shown)
VH: QVQLVQSGAEVKKPGASVKVSCKASGHIFSNYWIQWVRQAPGQGLEWMGEILPGSGHTEYTENFKDRVTMTRDTSTSTVYMELSSLRSEDTAVYYCARYFFGSSPNWYFDVWGQGTLVTVSS
VL: DIQMTQSPSSLSASVGDRVTITCGASENIYGALNWYQQKPGKAPKLLIYGATNLADGVPSRFSGSGSGTDFTLTISSLQPEDFATYYCQNVLNTPLTFGQGTKVEIK
